This note sets out measurements from US20250032635A1, “LIGAND-POLAR DRUG CONJUGATES” (priority 2023, published 2025).

As usually defined, the IC50 is the concentration at which inhibition is half-maximal. A lower IC50 goes with greater potency. A word on the GI50: it is the concentration giving 50% growth inhibition.

For one test, the system named is MDA-MB-231. Kind of test: In vitro cytotoxicity assay, MDA-MB-231. It counts as cell-based. To be noted: MDA-MB-231, HER2+. An excerpt: (§1) Breast cancer cell line MDA-MB-231 and SK-BR-3, gastric cancer cell line NCI-N87, ovarian cancer cell line SK-OV-3, and pancreatic cancer cell line Capan-1 were purchased from ATCC. Breast cancer cell line JIMT-1 was purchased from Deutsche Sammlung von Mikroorganismen und Zellkulturen (DSMZ, Germany). Gastric cancer cell line MKN45 was purchased from RIKEN. Human umbilical vein endothelial cell line (HUVAC) was purchased from BCRC (Bioresource Collection and Research Center, Hsinchu City, Taiwan).
(§2) Human MDR1 overexpressed NCI-N87 (NCI-N87-hMDR1) cell line was produced by lentiviral vector-mediated gene transduction. Briefly, the lentiviral transfer vector contains both hEF1α promotor-driven hMDR1 coding sequence (CDS) and hPGK promoter-driven EGFP-IRES-Puro bicistronic cassette. The lentivirus was packaged using second-generation lentiviral system in 293T cell line. […]
(§3) In vitro cytotoxicity assays were performed as previously described (Boyd and Paull, 1995; Phillips et al., 2008). GI50 was calculated as [(Ti−Tz)/(C−Tz)]×100=50, in which “Tz” represents the cell population at DO; “Ti” represents the cell populations of different ADC concentration groups at D3; and “C” represents the cell population of vehicle group at D3. IC50, the half maximal inhibitory concentration, was calculated from dose-response curves which was generated by four-parameter curve fitting.

The subject of the next test is SK-BR-3. The experiment in a line: In vitro cytotoxicity assay, SK-BR-3. It counts as cell-based. To be noted: SK-BR-3, HER2+++; Table 2.
Excerpt: as §1
as §2, with “line. After transfection, stable NCI-N87-hMDR1 was selected and maintained in puromycin (0.55 μg/mL) containing RPMI-1640 medium. JIMT-1 and MDA-MB-231 were maintained in DMEM supplemented with 10% heat-inactivated fetal bovine serum (FBS).” for “line.”
(§4) In vitro cytotoxicity assays were performed as previously described (Boyd and Paull, 1995; Phillips et al., 2008). […] IC50, the half maximal inhibitory concentration, was calculated from dose-response curves which was generated by four-parameter curve fitting.

In the next test the test system is MKN45. The experiment in a line: In vitro cytotoxicity assay, MKN45. It counts as cell-based. To be noted: MKN45, HER2+.
Excerpt: as §1, §2, §3

The test system of the next test is JIMT-1. The experiment in a line: In vitro cytotoxicity assay, JIMT-1. It counts as cell-based. Particulars: JIMT-1, HER2++.
Excerpt: as §1, §2, §3

The subject of another test is JIMT-1 xenograft. The experiment in a line: JIMT-1 xenograft tumor model, cytotoxic APDCs. It counts as in vivo, mice. To be noted: single intravenous injection 10 mg/kg at day zero. On the procedure:
Xenograft Tumor Model Experiments for Cytotoxic APDCs
Experiments of xenograft tumor model with cytotoxic APDCs were performed as previously described (Jumbe et al., 2010).

Another test relates to Capan-1. The experiment in a line: In vitro cytotoxicity assay, Capan-1. It counts as cell-based. To be noted: Capan-1, HER2++.
Excerpt: as §1, §2, §3

Another test relates to NCI-N87-hMDR1. The experiment in a line: In vitro cytotoxicity assay, MDR1-overexpressing NCI-N87-hMDR1. It counts as cell-based. The procedure: (§5) Human MDR1 overexpressed NCI-N87 (NCI-N87-hMDR1) cell line was produced by lentiviral vector-mediated gene transduction. Briefly, the lentiviral transfer vector contains both hEF1α promotor-driven hMDR1 coding sequence (CDS) and hPGK promoter-driven EGFP-IRES-Puro bicistronic cassette. The lentivirus was packaged using second-generation lentiviral system in 293T cell line. After transfection, stable NCI-N87-hMDR1 was selected and maintained in puromycin (0.55 μg/mL) containing RPMI-1640 medium. JIMT-1 and MDA-MB-231 were maintained in DMEM supplemented with 10% heat-inactivated fetal bovine serum (FBS). NCI-N87, NCI-N87-hMDR1, SK—OV-3, and MKN45 were maintained in RPMI-1640 supplemented with 10% heat-inactivated FBS. SK-BR-3 was maintained in McCoy's 5A supplemented with 10% heat-inactivated FBS. Capan-1 was maintained in IMDM supplemented with 20% heat-inactivated FBS. HUVAC was maintained in M199 supplemented with 25 U/mL heparin, 30 μg/mL ECGS and 10% heat-inactivated FBS. All cell lines were cultured at 37° C. under 5% CO2 atmosphere.
(§6) In Vitro Cytotoxicity Assays of APDCs
as §4

A further test relates to NCI-N87. Kind of test: In vitro cytotoxicity assay, NCI-N87. It counts as cell-based.
Excerpt: as §1, §5, §6, §3

A value given as a limit tells only on which side of the number the result lay.

For the substance Enhertu, the half-maximal inhibitory concentration (IC50) with MDA-MB-231 (Table 2) is above 1000 nM; in the test with SK-BR-3, 0.23 nM; with MKN45 (Table 2) it was 371 nM; with JIMT-1 (Table 2) it was above 1000 nM; in the test with Capan-1 (Table 2), above 1000 nM; in the test on NCI-N87-hMDR1 (Table 4) it was 36 nM. The IC50 in the test on NCI-N87 (NCI-N87, HER2+++, Table 2) is 0.97 nM; in the test with NCI-N87 (NCI-N87, Table 4 (MDR1 comparison)) it was 3.1 nM. The 50% growth inhibitory concentration (GI50) in the test on MDA-MB-231 (Table 3) is above 1000 nM; in the test with MKN45 (Table 3), 1040 nM; in the test with JIMT-1 (Table 3) it was above 1000 nM; in the test with Capan-1 (Table 3) it was 56 nM; with NCI-N87-hMDR1 (Table 5), above 1000 nM; in the test with NCI-N87 (NCI-N87, HER2+++, Table 3), 12 nM. Further, the GI50 in the test with NCI-N87 (NCI-N87, Table 5 (MDR1 comparison)) was 49 nM. Moreover, the “tumor volume as a function of time (FIG. 1)” value with JIMT-1 xenograft was “significant tumor growth”.
